ChEMBL document CHEMBL5518210 (J Med Chem, 2024)
Converted amounts (≈) assume the structure as drawn. Values belong to the molecule of their own block, whether it stands above or below them.

Protein sequences, listed by entry. Tags and fused reporters are not part of them.
UniProt Q16236, whole entry, looked up: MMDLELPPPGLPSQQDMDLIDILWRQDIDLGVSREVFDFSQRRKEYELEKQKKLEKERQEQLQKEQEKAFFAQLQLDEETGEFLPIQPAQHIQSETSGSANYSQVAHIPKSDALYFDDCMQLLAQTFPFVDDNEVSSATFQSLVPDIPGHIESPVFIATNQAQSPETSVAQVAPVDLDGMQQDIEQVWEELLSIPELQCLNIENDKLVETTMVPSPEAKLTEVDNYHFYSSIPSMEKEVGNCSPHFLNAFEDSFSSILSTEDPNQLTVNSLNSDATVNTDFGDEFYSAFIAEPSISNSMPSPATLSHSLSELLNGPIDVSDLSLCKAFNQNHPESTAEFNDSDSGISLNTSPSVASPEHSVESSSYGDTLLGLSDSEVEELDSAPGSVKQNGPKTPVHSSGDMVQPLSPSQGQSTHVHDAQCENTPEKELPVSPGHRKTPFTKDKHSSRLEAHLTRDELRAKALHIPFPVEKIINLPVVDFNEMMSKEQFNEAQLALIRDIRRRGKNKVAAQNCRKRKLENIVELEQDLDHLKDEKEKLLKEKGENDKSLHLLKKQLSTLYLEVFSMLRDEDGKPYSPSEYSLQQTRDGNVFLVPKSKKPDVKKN
UniProt Q14145, whole entry, looked up: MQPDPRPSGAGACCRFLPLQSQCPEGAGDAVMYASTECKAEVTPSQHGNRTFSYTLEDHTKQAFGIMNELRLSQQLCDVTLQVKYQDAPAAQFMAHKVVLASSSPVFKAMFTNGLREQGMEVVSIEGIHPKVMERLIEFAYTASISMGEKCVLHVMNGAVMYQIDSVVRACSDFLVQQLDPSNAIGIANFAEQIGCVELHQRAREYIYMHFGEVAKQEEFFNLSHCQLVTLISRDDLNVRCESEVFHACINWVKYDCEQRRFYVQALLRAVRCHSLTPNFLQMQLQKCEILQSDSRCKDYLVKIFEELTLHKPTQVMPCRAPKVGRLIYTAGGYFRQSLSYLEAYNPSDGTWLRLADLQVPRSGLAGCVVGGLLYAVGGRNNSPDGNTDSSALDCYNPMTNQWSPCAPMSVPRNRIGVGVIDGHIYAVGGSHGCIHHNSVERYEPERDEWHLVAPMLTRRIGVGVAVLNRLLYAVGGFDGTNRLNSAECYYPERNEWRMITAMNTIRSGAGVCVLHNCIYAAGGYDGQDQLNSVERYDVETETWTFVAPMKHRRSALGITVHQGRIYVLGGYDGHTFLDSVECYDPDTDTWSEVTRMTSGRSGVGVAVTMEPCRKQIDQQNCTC

Legend:
[1] = target: Keap1/Nrf2 (Homo sapiens) (UniProt Q16236+Q14145); settings: HRMC, time 18.0 hrs
[2] = Apparent permeability in human Caco-2 cells incubated for 2 hrs by LC/MS analysis
in vivo [3] = settings: CD(SD), rat, po, 1 mg/kg
in vivo [4] = settings: CD(SD), rat, po, 1 mg/kg; remark: listed apart in the source
in vivo [5] = settings: CD(SD), rat, po, 1 mg/kg; remark: listed apart in the source
in vivo [6] = settings: CD(SD), rat, iv, 0.1 mg/kg
in vivo [7] = settings: Wistar, rat, kidney, po, 1 mg/kg
in vivo [8] = settings: CD(SD), rat, iv, 0.1 mg/kg; remark: listed apart in the source
in vitro [9] = settings: rat, liver microsomes
physchem [10] = settings: FeSSIF, pH 5
in vivo [11] = settings: CD(SD), rat, po, 1 mg/kg; remark: listed apart in the source
in vivo [12] = settings: Wistar, rat, plasma, po, 1 mg/kg
in vitro [13] = settings: rat, plasma
in vivo [14] = settings: CD(SD), rat, po, 1 mg/kg; remark: listed apart in the source
in vivo [15] = settings: CD(SD), rat, iv, 0.1 mg/kg; remark: listed apart in the source
in vivo [16] = settings: Wistar, rat, kidney, po, 3 mg/kg
in vivo [17] = settings: CD(SD), rat, iv, 0.1 mg/kg; remark: listed apart in the source
in vivo [18] = settings: Wistar, rat, kidney, po, 0.1 mg/kg
in vitro [19] = settings: human, plasma
in vivo [20] = settings: CD(SD), rat, po, 1 mg/kg; remark: listed apart in the source
in vivo [21] = settings: CD(SD), rat, iv, 0.1 mg/kg; remark: listed apart in the source
physchem [22] = settings: FaSSIF, pH 6.5
[23] = Metabolic stability in human liver microsomes assessed as compound remaining at 5 uM measured upto 60 mins
in vivo [24] = settings: Wistar, rat, kidney, po, 0.3 mg/kg
in vivo [25] = settings: Wistar, rat, plasma, po, 3 mg/kg
in vivo [26] = settings: Wistar, rat, plasma, po, 0.1 mg/kg
in vivo [27] = settings: Wistar, rat, plasma, po, 0.3 mg/kg

SMILES: Cc1ccc(CC(=O)N[C@H](c2ccc(C)c(OCC(C)(C)O)c2)[C@@H](C)C(=O)O)cc1
CD [1]: 31 µM

SMILES: CCCOc1cc([C@@H](NC(=O)Cc2ccc(C)cc2)[C@@H](C)C(=O)O)ccc1C
CD [1]: 24 µM

SMILES: Cc1ccc([C@@H](NC(=O)[C@@H](F)c2ccc(Cl)cc2)[C@@H](C)C(=O)O)cc1OCC(C)(C)C#N
Papp at 2 h [2]: 2.7 ×10⁻⁶ cm/s | MRT at 25 h (in vivo [3]): 9.3 h | AUC at 25 h (in vivo [4]): 24 µM·h | Tmax at 25 h (in vivo [5]): 0.8 h | Vd at 25 h (in vivo [6]): 0.26 L/kg | MRT at 25 h (in vivo [8]): 5 h | remaining at 1 h, 5 µM (in vitro [9]): 97% | solubility at 4 h (physchem [10]): 471 µM (≈ 217 µg/mL) | Cmax at 25 h (in vivo [11]): 2300 nM | fraction unbound (in vitro [13]): 0.001 | bioavailability at 25 h (in vivo [14]): 55% | half-life at 25 h (in vivo [15]): 5.4 h | AUC at 25 h (in vivo [17]): 4.3 µM·h | fraction unbound (in vitro [19]): 0.002 | half-life at 25 h (in vivo [20]): 7.3 h | clearance at 25 h (in vivo [21]): 0.85 mL/min/kg | solubility at 4 h (physchem [22]): 470 µM (≈ 217 µg/mL) | remaining at 1 h, 5 µM [23]: 96%

SMILES: Cc1ccc(CC(=O)N[C@H](c2ccc(C)c(OCC3CCCCC3)c2)[C@@H](C)C(=O)O)cc1
CD [1]: 13 µM

SMILES: Cc1ccc(CC(=O)N[C@H](c2ccc(C)c(OCC(C)(C)C#N)c2)[C@@H](C)C(=O)O)cc1
CD [1]: 1.2 µM

SMILES: Cc1ccc([C@H](F)C(=O)N[C@H](c2ccc(C)c(OCC3(C#N)CC3)c2)[C@@H](C)C(=O)O)cc1
Papp at 2 h [2]: 1 ×10⁻⁶ cm/s | MRT at 25 h (in vivo [3]): 5.1 h | AUC at 25 h (in vivo [4]): 18 µM·h | Tmax at 25 h (in vivo [5]): 1 h | Vd at 25 h (in vivo [6]): 0.2 L/kg | concentration at 6 h (in vivo [7]): 160 nM | MRT at 25 h (in vivo [8]): 2.1 h | remaining at 1 h, 5 µM (in vitro [9]): 77% | solubility at 4 h (physchem [10]): 62 µM (≈ 27.2 µg/mL) | Cmax at 25 h (in vivo [11]): 3100 nM | concentration at 6 h (in vivo [12]): 130 nM | fraction unbound (in vitro [13]): 0.003 | bioavailability at 25 h (in vivo [14]): 74% | half-life at 25 h (in vivo [15]): 4.3 h | concentration at 6 h (in vivo [16]): 490 nM | AUC at 25 h (in vivo [17]): 2.4 µM·h | concentration at 6 h (in vivo [18]): 26 nM | fraction unbound (in vitro [19]): < 0.001 | half-life at 25 h (in vivo [20]): 4.4 h | clearance at 25 h (in vivo [21]): 1.67 mL/min/kg | solubility at 4 h (physchem [22]): ≥ 475 µM | remaining at 1 h, 5 µM [23]: 65% | concentration at 6 h (in vivo [24]): 82 nM | concentration at 6 h (in vivo [25]): 370 nM | concentration at 6 h (in vivo [26]): 16 nM | concentration at 6 h (in vivo [27]): 51 nM

SMILES: Cc1ccc(CC(=O)N[C@H](c2ccc(C)c(OCC(C)C)c2)[C@@H](C)C(=O)O)cc1
CD [1]: 17 µM

SMILES: Cc1ccc(CC(=O)N[C@H](c2ccc(C)c(OCC3CCCC3)c2)[C@@H](C)C(=O)O)cc1
CD [1]: 12 µM

SMILES: Cc1ccc(CC(=O)N[C@H](c2ccc(C)c(OCC3(C#N)CC3)c2)[C@@H](C)C(=O)O)cc1
CD [1]: 1.2 µM

SMILES: Cc1ccc([C@@H](NC(=O)Cc2ccc(Cl)cc2)[C@@H](C)C(=O)O)cc1OCC(C)(C)C#N
CD [1]: 1.8 µM

SMILES: Cc1ccc([C@@H](NC(=O)[C@@H](F)c2ccc3c(c2)CCCC3)[C@@H](C)C(=O)O)cc1
CD [1]: 2 µM

SMILES: Cc1ccc(CC(=O)N[C@H](c2ccc(C)c(OCC(C)(C)F)c2)[C@@H](C)C(=O)O)cc1
CD [1]: 1.3 µM

The remaining lines, values ahead:

CD [1]: 2.5 µM
SMILES: Cc1ccc([C@@H](NC(=O)Cc2ccc(Cc3ccccn3)cc2)[C@@H](C)C(=O)O)cc1.Cl

CD [1]: 47 µM
SMILES: Cc1ccc([C@@H](NC(=O)Cc2ccc(Cn3ccccc3=O)cc2)[C@@H](C)C(=O)O)cc1

Papp at 2 h [2]: 14 ×10⁻⁶ cm/s | MRT at 25 h (in vivo [3]): 6.4 h | AUC at 25 h (in vivo [4]): 1.1 µM·h | Tmax at 25 h (in vivo [5]): 3 h | Vd at 25 h (in vivo [6]): 2.4 L/kg | concentration at 6 h (in vivo [7]): 400 nM | MRT at 25 h (in vivo [8]): 2.9 h | remaining at 1 h, 5 µM (in vitro [9]): 71% | solubility at 4 h (physchem [10]): 380 µM (≈ 177 µg/mL) | Cmax at 25 h (in vivo [11]): 98 nM | concentration at 6 h (in vivo [12]): 56 nM | fraction unbound (in vitro [13]): 0.01 | bioavailability at 25 h (in vivo [14]): 42% | half-life at 25 h (in vivo [15]): 2.4 h | concentration at 6 h (in vivo [16]): 730 nM | AUC at 25 h (in vivo [17]): 0.26 µM·h | concentration at 6 h (in vivo [18]): 64 nM | fraction unbound (in vitro [19]): 0.038 | half-life at 25 h (in vivo [20]): 4.1 h | clearance at 25 h (in vivo [21]): 14 mL/min/kg | solubility at 4 h (physchem [22]): ≥ 475 µM | remaining at 1 h, 5 µM [23]: 89% | concentration at 6 h (in vivo [24]): 190 nM | concentration at 6 h (in vivo [25]): 150 nM | concentration at 6 h (in vivo [26]): 5 nM | concentration at 6 h (in vivo [27]): 19 nM
SMILES: CCOc1cccnc1Cc1ccc([C@H](F)C(=O)N[C@H](c2ccc(C)cc2)[C@@H](C)C(=O)O)cc1

CD [1]: 45 µM
SMILES: Cc1ccc([C@@H](NC(=O)Cc2ccc(CC3CCCCC3)cc2)[C@@H](C)C(=O)O)cc1

CD [1]: > 100 µM
SMILES: Cc1ccc(CC(=O)N[C@H](c2ccc(C)cc2)[C@@H](C)C(=O)O)cc1

CD [1]: 2.2 µM
SMILES: Cc1ccc([C@@H](NC(=O)Cc2ccc(Cc3ccc(C)cn3)cc2)[C@@H](C)C(=O)O)cc1.Cl

CD [1]: 7.6 µM
SMILES: Cc1ccc([C@@H](NC(=O)Cc2ccc(Cn3cccn3)cc2)[C@@H](C)C(=O)O)cc1

CD [1]: 0.68 µM
SMILES: COc1cccnc1Cc1ccc(CC(=O)N[C@H](c2ccc(C)cc2)[C@@H](C)C(=O)O)cc1.Cl

CD [1]: 0.21 µM
SMILES: CCOc1cccnc1Cc1ccc(CC(=O)N[C@H](c2ccc(C)cc2)[C@@H](C)C(=O)O)cc1

CD [1]: 2.6 µM
SMILES: Cc1ccc([C@@H](NC(=O)Cc2ccc(Cc3cc(C)ccn3)cc2)[C@@H](C)C(=O)O)cc1.Cl

CD [1]: 1.1 µM
SMILES: Cc1ccc([C@@H](NC(=O)Cc2ccc(Cc3ncccc3C)cc2)[C@@H](C)C(=O)O)cc1.Cl

CD [1]: 2.9 µM
SMILES: Cc1ccc([C@@H](NC(=O)Cc2ccc(Cc3cccc(C)n3)cc2)[C@@H](C)C(=O)O)cc1.Cl

CD [1]: 33 µM
SMILES: Cc1ccc([C@@H](NC(=O)Cc2ccc(Cc3ccccc3)cc2)[C@@H](C)C(=O)O)cc1
